From publication PMC10294837 (2023)

Amino acid sequences for entries named in this document (tags omitted).
UniProt Q6Q2J0, whole entry: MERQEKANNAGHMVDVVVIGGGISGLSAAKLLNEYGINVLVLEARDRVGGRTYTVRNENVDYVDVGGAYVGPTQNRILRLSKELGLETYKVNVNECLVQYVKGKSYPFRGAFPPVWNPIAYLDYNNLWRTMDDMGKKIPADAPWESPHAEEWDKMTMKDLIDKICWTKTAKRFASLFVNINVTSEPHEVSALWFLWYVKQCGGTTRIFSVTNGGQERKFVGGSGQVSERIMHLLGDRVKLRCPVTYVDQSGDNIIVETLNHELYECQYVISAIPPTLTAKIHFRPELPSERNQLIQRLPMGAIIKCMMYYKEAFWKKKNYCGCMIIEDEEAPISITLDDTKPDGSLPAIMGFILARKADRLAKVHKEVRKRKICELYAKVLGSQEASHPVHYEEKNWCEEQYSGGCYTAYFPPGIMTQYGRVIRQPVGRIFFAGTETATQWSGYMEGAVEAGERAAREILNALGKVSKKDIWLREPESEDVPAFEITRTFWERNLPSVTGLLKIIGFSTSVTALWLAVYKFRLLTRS

Experiments:
[1] = system: complex I-linked respiration in isolated mitochondria; assay: Complex I-linked respiration, high-resolution respirometry in isolated mitochondria
[2] = molecular target: MAO-A (Sus scrofa, UniProt Q6Q2J0); assay: MAO-A activity, radiolabeled [3H]serotonin substrate, pig brain mitochondria; type: biochemical

O=c1n(CCCN2CCN(c3cccc(Cl)c3)CC2)nc2ccccn12 [trazodone]
Inhibition (partial/full), complex I-linked respiration [1]: partial | Residual Activity, complex I-linked respiration ([1]; mean ± SEM, four measurements): 0.815 ± 0.015 rel.u. | Inhibition (partial/full), MAO-A [2]: partial | Inhibition (partial/full), MAO-A ([2]; listed as TRA): partial inhibitors | Hill Slope, MAO-A ([2]; mean ± SEM, four measurements): 1.23 ± 0.22 | Residual Activity, MAO-A ([2]; mean ± SEM, four measurements): 0.184 ± 0.042 rel.u.

Like-named read-outs stand apart in the source and are kept apart here.
